Results reported in US20250340529A1, “Heterocyclic Compounds as Immunomodulators of PD-L1 Interactions” (Ascletis BioScience Co., Ltd, priority 2021, published 2025).
Read-outs that look alike come from different tables or passages of the source.

Chains of the proteins cited; added tags and fusions are not shown. Residues count along the entry.
UniProt Q9NZQ7, 19-238 limits assumed: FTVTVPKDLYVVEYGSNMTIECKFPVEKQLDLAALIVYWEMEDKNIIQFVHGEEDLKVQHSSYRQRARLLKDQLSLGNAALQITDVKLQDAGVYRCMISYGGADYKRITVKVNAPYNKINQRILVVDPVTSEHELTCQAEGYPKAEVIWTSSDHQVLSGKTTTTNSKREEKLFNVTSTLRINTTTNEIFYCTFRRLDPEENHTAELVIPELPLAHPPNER
UniProt Q9NZQ7, 19-290 limits assumed: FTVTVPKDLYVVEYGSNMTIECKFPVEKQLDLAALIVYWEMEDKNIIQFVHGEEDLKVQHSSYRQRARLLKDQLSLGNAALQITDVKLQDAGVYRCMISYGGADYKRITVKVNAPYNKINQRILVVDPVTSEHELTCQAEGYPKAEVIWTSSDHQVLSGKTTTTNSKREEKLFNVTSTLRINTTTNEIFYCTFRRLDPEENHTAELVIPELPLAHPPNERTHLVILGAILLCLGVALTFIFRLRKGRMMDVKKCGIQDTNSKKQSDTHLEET

Columns and labels:
[1] = target: PD-1/PD-L1 (Homo sapiens (Human), UniProt Q9NZQ7); assay: PD-1/PD-L1 Homogeneous Time-Resolved Fluorescence (HTRF) binding assay; conditions: read-out: HTRF IC50 (nm), 3 nM PD1, 10 nM PD-L1, 25° C., PBS pH 7.4
Method: PD-1/PD-L1 Homogeneous Time-Resolved Fluorescence (HTRF) Binding Assay
The assays were conducted in a standard black 384-well polystyrene plate with a final volume of 20 μL. Inhibitors were first serially diluted in DMSO and then added to the plate wells before the addition of other reaction components. The final concentration of DMSO in the assay was 1%. The assays were carried out at 25° C. in the PBS buffer (pH 7.4) with 0.05% Tween-20 and 0.1% BSA. Recombinant human PD-L1 protein (19-238) with a Histag at the C-terminus was purchased from AcroBiosystems (PD1-H5229). Recombinant human PD-1 protein (25-167) with Fe tag at the C-terminus was also purchased from AcroBiosystems (PD1-H5257). PD-L1 and PD-1 proteins were diluted in the assay buffer and 10 μL was added to the plate well. Plates were centrifuged and proteins were preincubated with inhibitors for 40 minutes. The incubation was followed by the addition of 10 μL of HTRF detection buffer supplemented with Europium cryptate-labeled anti-human IgG (PerkinElmer-AD0212) specific for Fe and anti-His antibody conjugated to SureLight®-Allophycocyanin (APC, PerkinElmer-AD0059H). After centrifugation, the plate was incubated at 25° C. for 60 min. before reading on a PHERAstar FS plate reader (665 nm/620 nm ratio). Final concentrations in the assay were—3 nM PD1, 10 nM PD-L1, 1 nM europium anti-human IgG and 20 nM anti-His-Allophycocyanin. IC50 determination was performed by fitting the curve of percent control activity versus the log of the inhibitor concentration.

[2] = target: extracellular domains of PD-L1 (Homo sapiens (Human), UniProt Q9NZQ7); assay: PD-L1 dimerization (biochemical protein-protein interaction assay); conditions: read-out: Dimerization EC50 (nm); PDL1-Eu and PDL1-A2, 25° C., 120 min
Method: Compounds were tested in biochemical protein-protein interaction assays to determine if they can specifically dimerize the extracellular domains of PD-L1. • (1) Dilute cpd 1:3 in succession in DMSO for each column for 10±0 pts (refer to dilution plate map) • (2) Transfer 0.2 μL cpds solution in each row to 384 assay plate using Echo, each column containing 2 replicates (refer to assay plate map). • (3) Add 20 μL prepared mixture include PDL1-Eu and PDL1-A2 solution to assay plate, centrifuge at 1000 rpm for 1 min. • (4) Incubate at 25° C. for 120 min. • (5) Read fluorescence signal on Envision 2104 plate reader. • (6) Read the Ratio (665 nm/615 nm) signal on Envision. • (7) Analyze the raw data using the equation (V. Data analysis)

[3] = target: PD-L1/CHO-K1 cells (Homo sapiens (Human), UniProt Q9NZQ7); assay: PD-L1 internalization (FACS, PD-L1/CHO-K1 cells); conditions: % activation of PD-L1 internalization = 1 − PD-L1 signal; 17 hours incubation
Method: Day 1. Seeding cells: Digest the PD-L1/CHO-K1 cells by trypsin in the flask, then counting the cell number and diluted to 1×10^5 cells/ml. Seeding cells to 6 well plate (Corning, #3516), 2 mL/well. The plates were incubated at 37° C., […] incubator for 24 hours.
Day 2. Preparing compounds and treated cells: Dilute GLC01-258 from 15 mM to 0.5 mM by using DMSO, and 15 mM compound were serial diluted from 15 mM˜15 nM by DMSO, Then 500 times dilute the compounds by using assay buffer. Prepare 0.2% DMSO in assay buffer used for Vehicle control and low control. Take out the plates, aspirated the medium and thrown away. Adding 2 mL of the diluted compounds, vehicle control and low control to corresponding wells. Then incubated the plates for 17 hours at 37° C., 5% CO2 incubator.
Day 3. Preparing samples for FACS: After 17 hours incubation, discarded medium and washed by the PBS. Cells in each well were Digested by trypsin. Centrifuge and discard the supernatant, then wash the cells by DPBS (Ca^2+, Mg^2+ free) for twice. 10 fold dilute the antibody (PE-conjugated mouse anti-human CD274) by DPBS, then adding the staining solution to compounds treated samples and vehicle control sample. The low control only add DPBS without antibody. Incubate the plates at room temperature for 20 minutes and protect from light. After 20 minutes, wash the samples by DPBS for twice. […]

For `O=C(O)[C@@H]1C[C@@H](O)CN1CCCN1C(=O)COc2cc(-c3cccc(-c4cccc(-c5ccc6c(c5)OCC(=O)N6CCCN5C[C@H](O)C[C@H]5C(=O)O)c4Cl)c3Cl)ccc21`, the IC50 [1] was 10.1 nM.

With `O=C1CC[C@@H](CN2C(=O)C(F)(F)Oc3cc(-c4cccc(-c5cccc(-c6cnc7c(c6)OC(F)(F)C(=O)N7C[C@@H]6CCC(=O)N6)c5Cl)c4Cl)cnc32)N1` the IC50 [1] was 146 nM.

For `O=C(O)CN1C(=O)COc2cc(-c3cccc(-c4cccc(-c5ccc6c(c5)OCC(=O)N6CC(=O)O)c4Cl)c3Cl)ccc21`, the IC50 ([1]; tested form: Na salt) was 3000 nM.

Work on `O=C(O)[C@H](CO)NCCCN1C(=O)COc2cc(-c3cccc(-c4cccc(-c5ccc6c(c5)OCC(=O)N6CCCN[C@@H](CO)C(=O)O)c4Cl)c3Cl)ccc21` yielded an EC50 [2] of 121 nM, an IC50 [1] of 6.47 nM and an Internalization [3] of 2.90%.

For `O=C1CC[C@@H](CN2C(=O)CCNc3cc(-c4cccc(-c5cccc(-c6ccc7c(c6)NCCC(=O)N7C[C@@H]6CCC(=O)N6)c5Cl)c4Cl)ccc32)N1`, the IC50 [1] was 737 nM.

Work on `O=C1CC[C@@H](CN2c3ccc(-c4cccc(-c5cccc(-c6ccc7c(c6)OCS(=O)(=O)N7C[C@@H]6CCC(=O)N6)c5Cl)c4Cl)cc3OCS2(=O)=O)N1` yielded an IC50 [1] of 191 nM.
